Test results from patent publication US20250205197A1.

Test: Mouse pharmacokinetic (PK) evaluation of drug metabolism to psilocin
Format: in vivo, C57Bl/6 mice

SMILES: CN(C)CCc1c[nH]c2cccc(OC(=O)OCc3ccccc3)c12 [B(II)]
- detection of the derivative in plasma (mice, oral 1 mg/kg): neither B(II) nor E(VI) were detected in plasma
- psilocin levels in treated mice, B(II) compared with E(VI) (oral dosing, Tables 2 and 3): higher psilocin levels
